These are literature values, as cited in patent US20120178782A1, “COMPOSITIONS AND METHODS FOR TREATING PROLIFERATIVE DISEASES” (priority 2009, published 2012).

The data set addresses T1, lypoxygenase-5 (Rattus norvegicus, UniProt P12527).
T1 construct: in polymorphonuclear leukocytes of rat; endogenous in cells; host or cells: rat polymorphonuclear leukocytes
T1 sequence (P12527 1-673): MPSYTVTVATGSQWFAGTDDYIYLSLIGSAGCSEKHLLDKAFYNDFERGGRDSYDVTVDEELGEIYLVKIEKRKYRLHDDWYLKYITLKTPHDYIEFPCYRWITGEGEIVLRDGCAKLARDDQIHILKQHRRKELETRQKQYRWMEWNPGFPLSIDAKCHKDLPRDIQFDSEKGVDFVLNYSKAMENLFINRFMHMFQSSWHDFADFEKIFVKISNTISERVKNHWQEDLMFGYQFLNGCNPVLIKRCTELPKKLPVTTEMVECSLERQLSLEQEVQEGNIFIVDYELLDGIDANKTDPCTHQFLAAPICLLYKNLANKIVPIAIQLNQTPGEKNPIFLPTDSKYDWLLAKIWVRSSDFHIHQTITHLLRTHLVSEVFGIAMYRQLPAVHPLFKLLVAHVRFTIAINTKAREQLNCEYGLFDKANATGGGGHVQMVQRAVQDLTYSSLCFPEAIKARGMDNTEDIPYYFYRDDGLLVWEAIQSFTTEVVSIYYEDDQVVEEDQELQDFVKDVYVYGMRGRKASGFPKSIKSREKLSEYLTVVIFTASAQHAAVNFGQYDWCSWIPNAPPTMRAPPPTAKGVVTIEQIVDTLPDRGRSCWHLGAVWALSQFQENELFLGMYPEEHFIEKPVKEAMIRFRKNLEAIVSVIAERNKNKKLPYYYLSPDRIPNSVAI
The following applies: polymorphonuclear leukocytes of rat; cited from earlier work.

Molecules are shown by their SMILES.

One may read the IC50 as the concentration that gives 50% inhibition. As for `CC(c1cc2ccccc2s1)N(O)C(N)=O` (stereo not shown) [Zileuton], the half-maximal inhibitory concentration (IC50) was 300 nM.
